# Tests used:
# By UniProt entry, the sequences of proteins in these tests, tags left out. Residues count along the entry.
# UniProt Q00535, whole entry: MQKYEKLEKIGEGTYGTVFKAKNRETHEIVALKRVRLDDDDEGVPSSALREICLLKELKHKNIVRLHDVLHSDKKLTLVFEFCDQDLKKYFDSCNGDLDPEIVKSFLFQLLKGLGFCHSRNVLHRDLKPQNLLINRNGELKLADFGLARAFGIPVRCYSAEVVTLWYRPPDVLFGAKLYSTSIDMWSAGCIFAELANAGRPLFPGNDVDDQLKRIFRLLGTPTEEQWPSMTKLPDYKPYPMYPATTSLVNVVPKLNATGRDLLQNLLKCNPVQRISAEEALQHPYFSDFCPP
# UniProt Q15078, 99-307 partner limits assumed: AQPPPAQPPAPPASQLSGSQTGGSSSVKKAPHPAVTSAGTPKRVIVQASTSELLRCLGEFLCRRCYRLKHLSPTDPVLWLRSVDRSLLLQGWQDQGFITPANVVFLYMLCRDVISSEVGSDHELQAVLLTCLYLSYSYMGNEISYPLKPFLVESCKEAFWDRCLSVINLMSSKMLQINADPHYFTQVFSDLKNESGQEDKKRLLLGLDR
# CDK5/p25 = CDK5/p25 (Homo sapiens, UniProt Q00535); assay: CDK5 mobility shift assay (enzymatic activity of CDK5/p25)
# CDK2/CycA2 = CDK2/CycA2 (Homo sapiens, UniProt P24941); assay: CDK2 mobility shift assay (enzymatic activity of CDK2/CycA2); details: read-out: CDK2 IC50; 1.25 nM CDK2/CycA2, 37 μM ATP, FL Peptide 18, 120 min at room temperature
structure (smiles),measurement,setting,value
"OCc1ccn(-c2ccc(Nc3cc4nc(NC5CC6CC5CN6)ccc4cn3)c(F)c2)n1 (single isomer, unassigned)",CDK5/CDK2 specificity,CDK5/p25; fold more active against CDK5 than CDK2,+ (10-fold or less more active against CDK5 than CDK2)
same,IC50,"CDK5/p25; read-out: CDK5 IC50, 0.154 nM CDK5/p25, FL peptide 29, 60 min at room temperature",> 1000 nM
same,IC50,CDK2/CycA2,> 1000 nM
